Reference: publication PMC7068811 (Frontiers in Immunology, 2020)

Test system: PD1-overexpressing Jurkat cells
Assay: PD-L1-Fc binding to PD1-overexpressing Jurkat cells
Assay type: cell-based
Conditions: detection with anti-human Fc AF647, MFI, flow cytometry
Method: The Jurkat T-cell line that was used in competitive inhibition was a recombinant Jurkat T-cell line that was purchased from Promega (Madison, WI, USA; Cat. 60535) and was cultured according to the manufacturer's instructions. This cell line expressed the firefly luciferase gene under the control of the nuclear factor of activated T cells (NFAT) response elements and overexpressed human PD-1 (Programmed Cell Death 1, GenBank Accession #NM_005018). PD1 protein expression was detected using anti-human PD1 conjugated to allophycocyanin (APC) (BioLegend, San Diego, CA, USA). Jurkat cells were added to wells of a 96-well plate. An 11-point dilution series of each peptide starting at 10 μM was prepared. Peptide dilutions were added to wells containing 50,000 Jurkat cells per well and incubated for 30 min on ice. […] Cells were then washed with staining buffer and incubated with anti-human IgG conjugated to AF647 (Jackson ImmunoResearch, West Grove, PA, USA) for 30 min on ice. Cells were washed and re-suspended with staining buffer and analyzed by flow cytometry.
Different concentrations of PD-L1-Fc fusion protein were incubated with Jurkat cells that overexpress PD1. Binding of PD-L1-Fc was detected with anti-human Fc antibody conjugated to AF647. Mean fluorescence intensities were measured by flow cytometry. […]

Substance: PD-L1-Fc: recombinant human PDL1-Fc fusion protein (Life Technologies)
- binding of PD-L1-Fc to PD1-overexpressing Jurkat cells: in a dose-dependent manner
